# Data reported in PubChem BioAssay AID2676 (National Center for Advancing Translational Sciences (NCATS), 2010).
# Amino acid sequences for entries named in this document (tags omitted). A change or cut given only in a name is not applied to a line headed by its entry.
# UniProt Q9HBX9: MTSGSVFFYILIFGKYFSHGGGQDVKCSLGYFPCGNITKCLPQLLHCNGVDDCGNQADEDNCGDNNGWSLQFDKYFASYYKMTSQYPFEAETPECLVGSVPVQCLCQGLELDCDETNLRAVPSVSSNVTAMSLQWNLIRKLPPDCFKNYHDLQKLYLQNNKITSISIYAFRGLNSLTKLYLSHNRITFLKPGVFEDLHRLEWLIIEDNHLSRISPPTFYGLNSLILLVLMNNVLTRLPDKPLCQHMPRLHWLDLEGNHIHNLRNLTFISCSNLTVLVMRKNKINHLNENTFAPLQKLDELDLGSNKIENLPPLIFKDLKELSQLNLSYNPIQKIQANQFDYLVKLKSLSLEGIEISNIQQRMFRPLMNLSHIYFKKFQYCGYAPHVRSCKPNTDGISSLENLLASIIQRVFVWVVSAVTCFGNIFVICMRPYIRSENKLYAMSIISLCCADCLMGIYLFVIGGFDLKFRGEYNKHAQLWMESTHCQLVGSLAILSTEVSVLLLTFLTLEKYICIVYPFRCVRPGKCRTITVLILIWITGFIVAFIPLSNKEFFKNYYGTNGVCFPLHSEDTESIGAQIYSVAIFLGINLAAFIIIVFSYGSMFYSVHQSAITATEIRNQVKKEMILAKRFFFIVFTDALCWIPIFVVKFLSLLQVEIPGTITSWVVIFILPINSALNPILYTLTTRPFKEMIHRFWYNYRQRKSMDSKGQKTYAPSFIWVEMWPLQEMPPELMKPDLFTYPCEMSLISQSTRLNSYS
# Several values for one entry are separate records, joined by “and”; a condition that tells them apart may be missing. Equal entries are not always repeated. Only a part is listed here, and it is no random draw. Activity calls are given as the source filed them. The call rests on the fitted dose curve; in most records, active means well fitted activation curve with a large enough effect; inconclusive means small, poorly fitted or top-dose-only effect; inactive means flat fitted curve, though single readings scatter.
# Biological target: Relaxin receptor 1 (Homo sapiens) (UniProt Q9HBX9)
# Experiment: qHTS Assay for Agonists of the Relaxin Receptor RXFP1; further: nearly all actives have a fitted effect of over 60% in size
# Conditions: HEK293T-RXFP1 cAMP TR-FRET, 30 min, percent of porcine relaxin response, buffer zero; at 57.5 µM (top of the series)
# From the text: NIH Chemical Genomics Center [NCGC] NIH Molecular Libraries Probe Production Centers Network [MLPCN] MLPCN Grant: R03 MH085705-01A1 Assay Submitter (PI): Alexander Agoulnik NCGC Assay Overview: The relaxin hormone is involved in the variety of biological functions in normal tissues and diseases. The role of relaxin is well-established in female reproduction and parturition, mammary gland and endometrial development, maintenance of myometrial quiescence during pregnancy. Relaxin signaling through its G protein-coupled receptor (GPCR) RXFP1 results in ECM remodeling through regulation of collagen deposition, cell invasiveness, proliferation and overall tissue homeostasis. […] Recombinant human relaxin (rhRlx) is currently being tested in clinical trials as a protective agent in congestive heart failure, in treating severe preeclampsia, and as an anti-fibrotic agent in systemic sclerosis. Upon relaxin binding RXFP1 activation leads to the activation of adenylate cyclase (AC) via Gs. cAMP will activate PKA, which phosphorylates many signaling proteins. Thus, detection of cAMP increase is an easy and reliable indication of relaxin receptor activation. To screen for agonists of the relaxin receptor, a HEK293T cell line stably transfected with RXFP1 was used. RXFP1 activation was assayed by changes in cAMP levels as detected with a time-resolved fluorescence energy transfer (TR-FRET) cAMP detection kit.
# NCGC Assay Protocol Summary: This is a cell-based assay for cAMP second messenger response to screen for agonists of the RXFP1 receptor. The assay was conducted in the presence of a PDE4 inhibitor (Ro 20174). The cells were lysed and the cAMP levels were measured with a TR-FRET cAMP kit. Presence of cAMP in the cell lysate disrupts binding between the cryptate-labeled anti-cAMP and d2-labeled cAMP pair, leading to a decrease in the TR-FRET signal. Data were normalized to the controls for basal activity (buffer only) and 100% activity (29 nM porcine relaxin). The EC50 values were determined from concentration-response data modeled with the standard Hill equation 1536-well assay protocol for the HEK293 RXFP1 cAMP assay: (1) Add 3 ul HEK293 RXFP1 cell culture. 2000 cells/well in DMEM/F12, 10% FBS, 1x Pen/Strep (dispensed offline with MultiDrop Combi). (2) Incubate 16-24 hr at 37C, 5% CO2. (3) Add 1 ul 400uM Ro20174 in DPBS, 0.05% BSA, 0.005% Tween 20. (3) Add 23 nl compounds in DMSO solution. Final concentration was 0.5 - 58 uM. (4) Incubate 30 min at 37C, 5% CO2. (5) Add 1 ul cAMP-d2 in lysis buffer (HTRF cAMP HiRange kit, CisBio). (6) Add 1 ul anti-cAMP antibody-cryptate in lysis buffer (HTRF cAMP HiRange kit, CisBio). (7) Incubate 30 min at room temperature. (6) Detect the assay plate in a ViewLux plate reader (PerkinElmer) with Ex=320 nm, Em1=615 nm and Em2=665 nm. Keywords: relaxin, RXFP1, RXFP2, G-protein coupled receptor, cAMP, agonist, high throughput screening, MLSMR, MLSCN, NIH Roadmap, qHTS and NCGC
# On the % scale 0 is the no-effect control and ±100 the full control effect.
row,SMILES,activation
1,O=P(Nc1nccs1)(c1ccccc1)c1ccccc1,inactive: -0.619%
2,CC(C)C(=O)NC(Sc1ccccc1)C(Cl)(Cl)Cl (centres undefined),inactive: 1.28%
3,c1nnnn1CCn1cnnn1,inactive: 0.352%
4,CN(C)C1(CNC(=O)c2ccc(Cl)c(S(N)(=O)=O)c2)CCCCC1,inactive: 4.04%
5,O=P(Nc1ccccn1)(c1ccc(Br)cc1)c1ccc(Br)cc1,inactive: 1.9%
6,O=P(Nc1nc2ccccc2s1)(c1ccccc1)c1ccccc1,inactive: -0.574%
7,C[C@H]1OP(=O)(Oc2ccccc2)[C@H](O)[C@H](O)[C@H]1N=[N+]=[N-] (some centres undefined),inactive: 3.87%
8,O=[N+]([O-])c1ncn(CCn2cnc([N+](=O)[O-])n2)n1,inactive: 0%
9,CC(=O)NC(SC(=S)N(C)C)C(Cl)(Cl)Cl (centres undefined),inactive: 2.9%
10,O=[N+]([O-])c1ccc(O)c(/C=N/Nc2ccc([N+](=O)[O-])cc2[N+](=O)[O-])c1,inactive: 0.173%
11,O=[As](O)(c1ccccc1)c1ccc(O)cc1,inactive: 2.37%
12,Nc1ccc([As](=O)(O)c2ccc([N+](=O)[O-])cc2)cc1,inactive: -1.57%
13,C(Cc1nn[nH]n1)Cc1nn[nH]n1,inactive: -1.55%
14,O=C(NC1CCS(=O)(=O)C1)NP(=S)(Oc1ccccc1)Oc1ccccc1 (centres undefined),inactive: -0.543%
15,CCNC(=S)/N=C(\N)N[N+](=O)[O-],inactive: -0.697%
16,c1ccc(-c2nn[nH]n2)c(-c2nn[nH]n2)c1,inactive: -0.261%
17,CCOC(=O)NC(Sc1ccccc1)C(Cl)(Cl)Cl (centres undefined),inactive: 1.49%
18,Cc1ccc(NP(=O)(Oc2cccc(C)c2)Oc2cccc(C)c2)nc1,inactive: -4.61%
19,COC(=O)c1cc2c(s1)N=C(c1ccccc1)N(C)P2(=O)N1CCOCC1 (centres undefined),inactive: 0.488%
20,Cc1ccc(OP(=O)(Nc2ccccn2)Oc2ccc(C)cc2)cc1,inactive: 2.85%
21,CC(=O)NC(SC(=S)N(CC(C)C)CC(C)C)C(Cl)(Cl)Cl (centres undefined),inactive: 0.781%
22,O=C(OC1CN2CCC1CC2)c1ccccc1 (centres undefined),inactive: -1.84%
23,CCC(=O)N1C2C3N(C(=O)CC)C1C1N(C(=O)CC)C(C(N1C(=O)CC)N3C(=O)CC)N2C(=O)CC,inactive: -0.286%
24,Cc1ccccc1OP(=O)(Nc1ccccn1)Oc1ccccc1C,inactive: 1.54%
25,CN(C)C(=O)Oc1noc2ccccc12,inactive: 2.61%

row,SMILES,activation
1,O=c1c2cc([N+](=O)[O-])ccc2[nH]c2c([N+](=O)[O-])cc([N+](=O)[O-])cc12,inactive: 4.84%
2,O=P1(Nc2nc3ccc(Cl)cc3s2)COc2ccccc2O1 (centres undefined),inactive: -0.909%
3,CCOc1ccc(C2=NCC(CBr)S2)cc1 (centres undefined),inactive: -0.718%
4,CC(C)(C)C(=O)NC(Sc1ccccc1)C(Cl)(Cl)Cl (centres undefined),inactive: -1.03%
5,CC(=O)c1ccc(N2CC2c2ccncc2)cc1 (centres undefined),inactive: 4.75%
6,Cc1ccccc1CN(C)C(=O)COC(=O)C(O)(c1ccccc1)c1ccccc1,inactive: 1.26%
7,C[C@@H]1C=CCP(=O)(Oc2ccccc2)O1 (some centres undefined),inactive: 0%
8,C[C@H]1OP(=O)(Oc2ccccc2)C[C@@H]2O[C@@H]21 (some centres undefined),inactive: -1.45%
9,CC(=O)Nc1ccc([As](=O)(O)O)c(O)c1,inactive: -1.09%
10,CC(=O)Nc1ccc(Oc2c([N+](=O)[O-])cc([N+](=O)[O-])cc2[N+](=O)[O-])cc1,inactive: -1.2%
11,NC(=O)c1cc([N+](=O)[O-])cc([N+](=O)[O-])c1N,inactive: 0.635%
12,CN(C(=O)Cc1ccc(Cl)c(Cl)c1)[C@H]1CCCC[C@H]1N1CCCC1,inactive: -1.26%
13,Cc1ccc(N/C(=N/P(=O)(N2CCOCC2)N2CCOCC2)N2CCOCC2)cc1,inactive: 1.39%
14,COc1ccccc1OP(=O)(Nc1ccc(C)cn1)Oc1ccccc1OC,inactive: 0.742%
15,Cc1ccc(OP(=O)(Nc2nccs2)Oc2ccc(C)cc2)cc1,inactive: 1.75%
16,Clc1ccc(Cl)c(NC2=NCC(CBr)S2)c1 (centres undefined),inactive: -1.32%
17,CN1CCCC(OC(=O)C(c2ccccc2)c2ccccc2)C1 (centres undefined),inactive: 0.575%
18,CC(C)CC(=O)NC(Sc1ccc(Cl)cc1)C(Cl)(Cl)Cl (centres undefined),inactive: -3.33%
19,Nc1cc(N)c2nonc2c1[N+](=O)[O-],inactive: 5.75%
20,Oc1ccccc1CNc1ccccn1,inactive: 4.18%
21,Cc1c2non([O-])c-2c(C)[n+](=O)[n+]1[O-],inactive: 0.0133%
22,O=C(NC(Sc1ccncn1)C(Cl)(Cl)Cl)c1ccccc1 (centres undefined),inactive: 1.64%
23,O=C(O)c1ccccc1[As](=O)(O)O,inactive: 5.07%
24,CC(=O)Nc1ccc([As](=O)(O)O)cc1,inactive: 2.06%
25,O=P(Nc1nc2ccc(Cl)cc2s1)(c1ccccc1)c1ccccc1,inactive: 3.95%

row,SMILES,activation
1,CCOP(=O)(Nc1ccccc1)OCC,inactive: 0.0833% and inactive: -0.323%
2,Cc1cc(SC(NC(=O)c2ccc(F)cc2)C(Cl)(Cl)Cl)ncn1 (centres undefined),inactive: 1.07%
3,Cc1ccc(NP(=O)(Oc2ccccc2F)Oc2ccccc2F)nc1,inactive: 4.53%
4,O=[N+]([O-])c1cc([N+](=O)[O-])c(CCN2CCOCC2)c([N+](=O)[O-])c1,inactive: 0.868%
5,CCN(N=Nc1nonc1N)c1nonc1N,inactive: 0.116%
6,Nc1cccc2ccc([As](=O)(O)O)cc12,inactive: 7.33%
7,O=C(Nc1cc([As](=O)(O)O)ccc1O)c1ccccc1,inactive: 0.224%
8,CC(C)(C)C(=O)NC(Sc1ccncn1)C(Cl)(Cl)Cl (centres undefined),inactive: -1.83%
9,O=[N+]([O-])c1ncn(CCn2ncnc2[N+](=O)[O-])n1,inactive: -0.307%
10,O=[N+]([O-])c1cccc(NC2=NCC(CBr)S2)c1 (centres undefined),inactive: 2.44%
11,O=C(O)CNc1ccc([As](=O)(O)O)cc1,inactive: 0.801%
12,COc1ccc(C2=NCC(CBr)S2)cc1 (centres undefined),inactive: -0.481%
13,CC(=O)N1C2C3N(C(C)=O)C1C1N(C(C)=O)C(C(N1C(C)=O)N3C(C)=O)N2C(C)=O,inactive: 0.238%
14,O=[N+]([O-])c1cccc2n[nH]nc12,inactive: -1.34%
15,Cc1ccc(NP(=O)(Oc2ccccc2)Oc2ccccc2)nc1,inactive: -3.6%
16,O=[N+]([O-])c1cc([N+](=O)[O-])c(CCNc2ccccc2)c([N+](=O)[O-])c1,inactive: -1.15%
17,CCc1nc2c(n1)c1c(non1O)c1c2no[n+]1[O-],inactive: -0.172%
18,Nc1ccc([As](=O)(O)c2ccc(N)cc2)cc1,inactive: -1.26%
19,C[N+]1=C2C=CC=CC=C2SC12C([N+](=O)[O-])=CC([N+](=O)[O-])=C[C-]2[N+](=O)[O-] (centres undefined),inactive: 18.9%
20,CCN(/C(=N/P(=O)(N1CCOCC1)N1CCOCC1)N1CCOCC1)c1ccc(OC)cc1,inactive: 2.83%
21,CC(C)=N/N=C(\N)N[N+](=O)[O-],inactive: 1.08%
22,CN(C)C(=O)OCCc1n(C)cc[n+]1C,inactive: 1.12%
23,CC1CCN(C(=O)Oc2c(Cl)cc(Cl)c3cccnc23)CC1,inactive: 1.79%
24,COP1(=S)c2c(C)nn(CCC#N)c2N=C(c2ccc(F)cc2)N1C (centres undefined),inactive: -0.182%
25,O=C(COc1ccccc1)OC1CN2CCC1CC2 (centres undefined),inactive: -3.24%

row,SMILES,activation
1,O=C(Nc1ccncc1[N+](=O)[O-])c1ccc([N+](=O)[O-])cc1[N+](=O)[O-],inactive: 12.9%
2,CCOC(=O)c1ccc(NC(=O)C(C)(CCl)SC)cc1 (centres undefined),inactive: 1.3%
3,O=C(OC1CN2CCC1CC2)c1cccc([N+](=O)[O-])c1 (centres undefined),inactive: -0.355%
4,CCC(C)N(CC(C)C)C(=S)SC(NC(C)=O)C(Cl)(Cl)Cl (centres undefined),inactive: -1.02%
5,CCOC(=O)Nc1ccc([As](=O)(O)O)c(O)c1,inactive: -0.0294%
6,CCCCOc1ccc(C(=O)NCC2(N3CCCCC3)CCCCC2)cc1OC,inactive: 0.853%
7,Cc1cc(SC(NC(=O)c2ccccc2)C(Cl)(Cl)Cl)nc(C(C)C)n1 (centres undefined),inactive: 2.28%
8,CCOC(=O)Nc1cccc([As](=O)(O)O)c1,inactive: 1.47%
9,O=[N+]([O-])c1ccc(Nc2ccc(Oc3ccc([N+](=O)[O-])cc3[N+](=O)[O-])cc2)c([N+](=O)[O-])c1,inactive: 2.61%
10,Cc1cc(SC(NC=O)C(Cl)(Cl)Cl)ncn1 (centres undefined),inactive: 1.55%
11,O=P(Nc1ccccn1)(c1cccc2ccccc12)c1cccc2ccccc12,inactive: 2.32%
12,C[As](=O)(O)c1cccc(C(=O)O)c1,inactive: 5.66%
13,O=[As](O)(c1ccc(O)cc1)c1ccccc1O,inactive: 1.7%
14,COc1cc(C(=O)NCC2(N3CCOCC3)CCCCC2)ccc1OCC(C)C,inactive: 0.544%
15,Cc1ccc2nc3c(c(C)c2c1)CC(C(Cl)Cl)S3 (centres undefined),inactive: 2.43%
16,Cc1ccc(OP(=O)(Nc2ccc([N+](=O)[O-])cn2)Oc2ccc(C)cc2)cc1,inactive: 1.23%
17,CC(C)c1ccc(OP(=O)(Nc2ccccn2)Oc2ccccc2F)cc1 (centres undefined),inactive: 1.88%
18,ClCCSc1nnc(-c2cccnc2)o1,inactive: 2.7%
19,CCN(CC)C(=S)SC(NC=O)C(Cl)(Cl)Cl (centres undefined),inactive: 0.716%
20,CC(C)NC(=O)NP(=O)(Oc1ccccc1)Oc1ccccc1,inactive: 0.584%
21,O=[N+]([O-])c1cc([N+](=O)[O-])c(-c2ccn[nH]2)s1,inactive: 1.93%
22,O=C(OC1CN2CCC1CC2)C12CC3CC(CC(C3)C1)C2 (centres undefined),inactive: -0.883%
23,Cc1cc(=O)[nH]c(N[N+](=O)[O-])n1,inactive: -1.12%
24,Cc1c2c(nc3ccccc13)SC(C(Cl)Cl)C2 (centres undefined),inactive: 2.86%
